Read-outs that look alike come from different tables or passages of the source.
Assays:
[1] = tested on: CYP3A4/5; test: Direct CYP3A4/5 inhibition, midazolam 1′-hydroxylation in pooled human liver microsomes; conditions: HLM, midazolam as probe substrate
[2] = target: CYP2D6 (Homo sapiens, UniProt P10635); test: Direct CYP2D6 inhibition, dextromethorphan O-demethylation in pooled human liver microsomes; conditions: for CYP2D6 activity expressed as % Vehicle Control: HLM, dextromethorphan; for IC50: read-out: IC50, inhibition of CYP2D6, HLM 0.1 mg/mL, dextromethorphan 5 μM, direct inhibition
[3] = target: CYP2C8 (Homo sapiens, UniProt P10632); conditions: HLM, amodiaquine
[4] = target: CYP2B6 (Homo sapiens, UniProt P20813); test: Direct CYP2B6 inhibition, bupropion hydroxylation in pooled human liver microsomes; conditions: HLM
[5] = tested on: CYP3A4/5; test: Direct CYP3A4/5 inhibition, testosterone 6β-hydroxylation in pooled human liver microsomes; conditions: HLM, testosterone as probe substrate
[6] = target: CYP2C19 (Homo sapiens, UniProt P33261); test: Direct CYP2C19 inhibition, S-mephenytoin 4′-hydroxylation in pooled human liver microsomes; conditions: HLM
[7] = target: CYP2C9 (Homo sapiens, UniProt P11712); test: Direct CYP2C9 inhibition, diclofenac 4′-hydroxylation in pooled human liver microsomes; conditions: HLM

Protein sequences, listed by entry. Tags and fused reporters are not part of them.
UniProt P10635, whole entry: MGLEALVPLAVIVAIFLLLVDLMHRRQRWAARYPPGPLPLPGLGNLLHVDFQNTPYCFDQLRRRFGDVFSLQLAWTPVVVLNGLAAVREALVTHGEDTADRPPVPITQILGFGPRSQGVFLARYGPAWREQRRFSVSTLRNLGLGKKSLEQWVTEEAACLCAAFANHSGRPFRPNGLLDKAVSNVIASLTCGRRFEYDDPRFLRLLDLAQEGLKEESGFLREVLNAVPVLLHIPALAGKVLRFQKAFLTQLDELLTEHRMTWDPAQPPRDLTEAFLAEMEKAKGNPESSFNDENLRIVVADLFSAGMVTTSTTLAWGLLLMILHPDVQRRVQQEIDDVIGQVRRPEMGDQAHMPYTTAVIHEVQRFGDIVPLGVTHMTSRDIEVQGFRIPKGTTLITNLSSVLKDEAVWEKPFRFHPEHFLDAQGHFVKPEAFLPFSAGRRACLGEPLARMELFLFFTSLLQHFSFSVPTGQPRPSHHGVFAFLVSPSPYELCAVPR
UniProt P10632, whole entry: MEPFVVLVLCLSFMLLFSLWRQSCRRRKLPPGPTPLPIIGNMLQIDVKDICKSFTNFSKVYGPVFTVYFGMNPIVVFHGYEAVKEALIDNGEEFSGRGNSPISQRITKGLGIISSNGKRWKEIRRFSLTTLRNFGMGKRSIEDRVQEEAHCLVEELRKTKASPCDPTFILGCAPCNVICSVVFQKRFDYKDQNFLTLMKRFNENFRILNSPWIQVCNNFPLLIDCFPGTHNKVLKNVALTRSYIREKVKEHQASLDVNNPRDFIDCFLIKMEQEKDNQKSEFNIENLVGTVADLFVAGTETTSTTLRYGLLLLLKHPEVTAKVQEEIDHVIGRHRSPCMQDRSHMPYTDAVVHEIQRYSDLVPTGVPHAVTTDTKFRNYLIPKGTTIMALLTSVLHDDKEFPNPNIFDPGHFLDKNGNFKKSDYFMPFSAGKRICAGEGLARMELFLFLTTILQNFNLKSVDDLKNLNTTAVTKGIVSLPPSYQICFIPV
UniProt P20813, whole entry: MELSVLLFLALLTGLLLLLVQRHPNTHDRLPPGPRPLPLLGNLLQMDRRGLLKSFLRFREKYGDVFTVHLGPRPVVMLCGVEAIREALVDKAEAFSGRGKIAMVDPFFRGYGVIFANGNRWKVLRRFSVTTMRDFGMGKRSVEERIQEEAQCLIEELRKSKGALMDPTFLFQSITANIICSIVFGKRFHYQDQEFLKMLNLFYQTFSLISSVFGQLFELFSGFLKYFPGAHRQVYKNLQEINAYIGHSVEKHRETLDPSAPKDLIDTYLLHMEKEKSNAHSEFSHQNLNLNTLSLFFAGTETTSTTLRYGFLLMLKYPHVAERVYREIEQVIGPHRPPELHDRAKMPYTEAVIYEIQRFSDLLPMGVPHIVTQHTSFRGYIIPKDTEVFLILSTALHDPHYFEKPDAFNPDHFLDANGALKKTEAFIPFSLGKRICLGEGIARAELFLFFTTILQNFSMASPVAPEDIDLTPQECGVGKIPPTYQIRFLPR
UniProt P33261, whole entry: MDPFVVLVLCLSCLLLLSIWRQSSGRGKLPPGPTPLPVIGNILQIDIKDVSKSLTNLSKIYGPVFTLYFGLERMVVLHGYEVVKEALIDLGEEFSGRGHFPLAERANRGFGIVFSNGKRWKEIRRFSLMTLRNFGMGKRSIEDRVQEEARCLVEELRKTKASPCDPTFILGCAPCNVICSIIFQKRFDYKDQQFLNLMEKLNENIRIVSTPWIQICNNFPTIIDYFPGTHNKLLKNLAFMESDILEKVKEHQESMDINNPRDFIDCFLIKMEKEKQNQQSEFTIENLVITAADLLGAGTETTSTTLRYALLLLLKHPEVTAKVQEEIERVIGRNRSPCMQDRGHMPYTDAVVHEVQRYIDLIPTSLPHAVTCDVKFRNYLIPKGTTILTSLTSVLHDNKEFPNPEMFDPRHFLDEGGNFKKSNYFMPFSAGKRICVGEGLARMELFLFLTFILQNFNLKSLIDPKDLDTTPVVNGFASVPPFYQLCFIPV
UniProt P11712, whole entry: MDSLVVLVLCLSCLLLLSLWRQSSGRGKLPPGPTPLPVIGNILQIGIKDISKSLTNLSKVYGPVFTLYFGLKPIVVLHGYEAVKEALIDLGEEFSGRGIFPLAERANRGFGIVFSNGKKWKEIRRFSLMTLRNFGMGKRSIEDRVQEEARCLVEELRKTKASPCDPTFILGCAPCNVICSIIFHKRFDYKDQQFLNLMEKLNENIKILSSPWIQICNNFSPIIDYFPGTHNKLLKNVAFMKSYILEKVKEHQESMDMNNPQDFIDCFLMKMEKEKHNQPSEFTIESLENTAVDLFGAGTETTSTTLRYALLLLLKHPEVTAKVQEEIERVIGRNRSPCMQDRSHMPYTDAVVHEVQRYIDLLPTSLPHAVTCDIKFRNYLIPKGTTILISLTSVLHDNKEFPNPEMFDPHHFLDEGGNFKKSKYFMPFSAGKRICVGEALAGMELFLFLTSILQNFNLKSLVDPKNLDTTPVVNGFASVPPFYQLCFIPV

How did the “CYP3A4/5 activity expressed as % Vehicle Control” value ([1]; phenylcapsaicyn 0.005 μM) turn out when `COc1cc(CNC(=O)CCCCC#Cc2ccccc2)ccc1O` was run?
Its value is 96.5 % Vehicle Control.

What about the “CYP3A4/5 activity expressed as % Vehicle Control” value ([1]; phenylcapsaicyn 0.05 μM) of the same compound?
Its value is 97.1 % Vehicle Control.

And the “CYP3A4/5 activity expressed as % Vehicle Control” value ([1]; phenylcapsaicyn 0.5 μM)?
Its value is 98.2 % Vehicle Control.

What about the “CYP3A4/5 activity expressed as % Vehicle Control” value ([1]; phenylcapsaicyn 5.0 μM) of the same compound?
The value was 104.1 % Vehicle Control.

And the “CYP3A4/5 activity expressed as % Vehicle Control” value ([1]; phenylcapsaicyn 50 μM)?
The value was 97.8 % Vehicle Control.

And the “CYP2D6 activity expressed as % Vehicle Control” value ([2]; phenylcapsaicyn 0.005 μM)?
Its value is 99.2 % Vehicle Control.

What about the “CYP2D6 activity expressed as % Vehicle Control” value ([2]; phenylcapsaicyn 0.05 μM) of the same compound?
The value was 97.6 % Vehicle Control.

And the “CYP2D6 activity expressed as % Vehicle Control” value ([2]; phenylcapsaicyn 0.5 μM)?
The value was 72.7 % Vehicle Control.

What about the “CYP2D6 activity expressed as % Vehicle Control” value ([2]; phenylcapsaicyn 5.0 μM) of the same compound?
Its value is 29.9 % Vehicle Control.

What about the “CYP2D6 activity expressed as % Vehicle Control” value ([2]; phenylcapsaicyn 50 μM) of the same compound?
Its value is 14.8 % Vehicle Control.

And the IC50 [2]?
The IC50 was 1.12 µM.

What about the IC50 ([2]; listed as phenylcapsaicyn) of the same compound?
The IC50 was 1.1 µM.

And the “Inhibition of CYP2D6 in words” value ([2]; relative to positive control quinidine, up to 50 μM)?
Its value is “moderate inhibitor”.

And the “CYP2C8 activity expressed as % Vehicle Control” value ([3]; phenylcapsaicyn 0.005 μM)?
The value was 102.8 % Vehicle Control.

What about the “CYP2C8 activity expressed as % Vehicle Control” value ([3]; phenylcapsaicyn 0.05 μM) of the same compound?
The value was 100.7 % Vehicle Control.

And the “CYP2C8 activity expressed as % Vehicle Control” value ([3]; phenylcapsaicyn 0.5 μM)?
Its value is 100.9 % Vehicle Control.

And the “CYP2C8 activity expressed as % Vehicle Control” value ([3]; phenylcapsaicyn 5.0 μM)?
Its value is 102.6 % Vehicle Control.

And the “CYP2C8 activity expressed as % Vehicle Control” value ([3]; phenylcapsaicyn 50 μM)?
The value was 97.8 % Vehicle Control.

And the “CYP2B6 activity expressed as % Vehicle Control” value ([4]; phenylcapsaicyn 0.005 μM)?
Its value is 92.1 % Vehicle Control.

And the “CYP2B6 activity expressed as % Vehicle Control” value ([4]; phenylcapsaicyn 0.05 μM)?
Its value is 95.6 % Vehicle Control.

What about the “CYP2B6 activity expressed as % Vehicle Control” value ([4]; phenylcapsaicyn 0.5 μM) of the same compound?
The value was 94.2 % Vehicle Control.

What about the “CYP2B6 activity expressed as % Vehicle Control” value ([4]; phenylcapsaicyn 5.0 μM) of the same compound?
Its value is 86.7 % Vehicle Control.

What about the “CYP2B6 activity expressed as % Vehicle Control” value ([4]; phenylcapsaicyn 50 μM) of the same compound?
The value was 75.3 % Vehicle Control.

What about the “CYP3A4/5 activity expressed as % Vehicle Control” value ([5]; phenylcapsaicyn 0.005 μM) of the same compound?
The value was 95.6 % Vehicle Control.

What about the “CYP3A4/5 activity expressed as % Vehicle Control” value ([5]; phenylcapsaicyn 0.05 μM) of the same compound?
The value was 100.4 % Vehicle Control.

And the “CYP3A4/5 activity expressed as % Vehicle Control” value ([5]; phenylcapsaicyn 0.5 μM)?
The value was 100.5 % Vehicle Control.

And the “CYP3A4/5 activity expressed as % Vehicle Control” value ([5]; phenylcapsaicyn 5.0 μM)?
Its value is 101.3 % Vehicle Control.

And the “CYP3A4/5 activity expressed as % Vehicle Control” value ([5]; phenylcapsaicyn 50 μM)?
The value was 93.8 % Vehicle Control.

And the “CYP2C19 activity expressed as % Vehicle Control” value ([6]; phenylcapsaicyn 0.005 μM)?
Its value is 99.3 % Vehicle Control.

What about the “CYP2C19 activity expressed as % Vehicle Control” value ([6]; phenylcapsaicyn 0.05 μM) of the same compound?
Its value is 97.7 % Vehicle Control.

And the “CYP2C19 activity expressed as % Vehicle Control” value ([6]; phenylcapsaicyn 0.5 μM)?
Its value is 103.7 % Vehicle Control.

And the “CYP2C19 activity expressed as % Vehicle Control” value ([6]; phenylcapsaicyn 5.0 μM)?
Its value is 99.4 % Vehicle Control.

And the “CYP2C19 activity expressed as % Vehicle Control” value ([6]; phenylcapsaicyn 50 μM)?
The value was 84.8 % Vehicle Control.

And the “CYP2C9 activity expressed as % Vehicle Control” value ([7]; phenylcapsaicyn 0.005 μM)?
Its value is 101.0 % Vehicle Control.

What about the “CYP2C9 activity expressed as % Vehicle Control” value ([7]; phenylcapsaicyn 0.05 μM) of the same compound?
The value was 102.9 % Vehicle Control.

And the “CYP2C9 activity expressed as % Vehicle Control” value ([7]; phenylcapsaicyn 0.5 μM)?
The value was 99.0 % Vehicle Control.

And the “CYP2C9 activity expressed as % Vehicle Control” value ([7]; phenylcapsaicyn 5.0 μM)?
The value was 99.9 % Vehicle Control.

What about the “CYP2C9 activity expressed as % Vehicle Control” value ([7]; phenylcapsaicyn 50 μM) of the same compound?
The value was 94.7 % Vehicle Control.
